# AlphaSeq binding of Ab-14 light chain variants to a spike HR2 peptide

All variants were tested on one target, the spike HR2 peptide PDVDLGDISGINAS (SARS-CoV-2).

Ab-14 is the parent antibody, in scFv form: VH, then a 15-residue (Gly4Ser)3 linker, then VL. The heavy chain is unchanged in all variants.
VH: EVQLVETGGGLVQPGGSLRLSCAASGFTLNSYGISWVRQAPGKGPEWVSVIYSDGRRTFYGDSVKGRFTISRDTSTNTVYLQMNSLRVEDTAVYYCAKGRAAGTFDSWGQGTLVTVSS
VL: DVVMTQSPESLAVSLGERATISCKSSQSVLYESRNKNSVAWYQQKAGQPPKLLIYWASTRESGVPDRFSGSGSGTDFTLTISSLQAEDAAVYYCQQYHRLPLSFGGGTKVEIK

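The parent was found by panning a naive human phage display library on the peptide. In library AAYL50, one, two or three CDR residues were substituted; doubles and triples were drawn at random. AlphaSeq pools MATa yeast showing the antibodies with MATalpha yeast showing the peptide. After mating in shaken culture at 30 °C for 16 h, diploids were selected and their barcode pairs sequenced. The ratio of observed to expected reads was calibrated, replicate by replicate, on BCL2-family standards whose Kd was known from biolayer interferometry. Each pool was mated in three replicate cultures.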

Each variant is given by its three light chain CDRs, as the data file delimits them; those of the parent are KSSQSVLYESRNKNSVA, WASTRES, QQYHRLPLS. The read-out is the apparent dissociation constant on a log10 scale (nM): the lower, the stronger. The mean shown is taken over the replicates in which the pair was detected. A pair that was not seen in that replicate is written "n.d."; this usually means weak binding, but a binder can also be missed. Empty control strains, which show no peptide, gave a signal in 18% of pairings with library AAYL50; the median was 4.19 and 95% of these signals were weaker than 2.99. No background was subtracted. Also given: how often the same scFv was detected with the empty control strains, with their mean in brackets.

{"CDR-L1": "KSSQSVLYESRNKNSVA", "CDR-L2": "WASTRAS", "CDR-L3": "QQYHRKPLS", "log10 Kd, replicates": "n.d. n.d. n.d.", "mean, log10 nM": "n.d.", "signal with controls": "1 of 9 (2.94)"}
{"CDR-L1": "KSSESVLYEDRNKISVA", "CDR-L2": "WASTRES", "CDR-L3": "QQYHRLPLS", "log10 Kd, replicates": "4.15 n.d. 3.78", "mean, log10 nM": "3.96", "signal with controls": "0 of 9"}
{"CDR-L1": "KSSQSVLYEPRDWNSVA", "CDR-L2": "WASTRES", "CDR-L3": "QQYHRLPLS", "log10 Kd, replicates": "1.17 1.19 1.44", "mean, log10 nM": "1.27", "signal with controls": "4 of 9 (4.39)"}
{"CDR-L1": "KSPQSVLYESRNTNSVA", "CDR-L2": "WASTRES", "CDR-L3": "QQYHRLPLS", "log10 Kd, replicates": "1.80 1.83 2.05", "mean, log10 nM": "1.89", "signal with controls": "6 of 9 (4.69)"}
{"CDR-L1": "KSDQSVLYESRNKNSDA", "CDR-L2": "WASTRES", "CDR-L3": "QQIHRLPLS", "log10 Kd, replicates": "6.05 5.12 4.33", "mean, log10 nM": "5.17", "signal with controls": "2 of 9 (4.47)"}
{"CDR-L1": "KSSQSVLYESRNKNSVA", "CDR-L2": "WAPTRES", "CDR-L3": "QQYHRTPLS", "log10 Kd, replicates": "n.d. n.d. n.d.", "mean, log10 nM": "n.d.", "signal with controls": "0 of 9"}
{"CDR-L1": "KSSQSVPYESRNKNSVA", "CDR-L2": "WASTTEY", "CDR-L3": "QQYHRLPLS", "log10 Kd, replicates": "n.d. n.d. n.d.", "mean, log10 nM": "n.d.", "signal with controls": "0 of 9"}
{"CDR-L1": "KSSQSVLYEWRNKNDVA", "CDR-L2": "WASTRES", "CDR-L3": "QQYHRLPLS", "log10 Kd, replicates": "2.68 2.72 2.87", "mean, log10 nM": "2.76", "signal with controls": "5 of 9 (4.90)"}
{"CDR-L1": "KSSQSVLYKSRNKNSVA", "CDR-L2": "WPSTRES", "CDR-L3": "QQYHRLPLS", "log10 Kd, replicates": "n.d. n.d. n.d.", "mean, log10 nM": "n.d.", "signal with controls": "1 of 9 (2.48)"}
{"CDR-L1": "KSSQSVLYESRNKNSVA", "CDR-L2": "WASTRES", "CDR-L3": "QQYHQLPSS", "log10 Kd, replicates": "2.30 2.11 2.18", "mean, log10 nM": "2.20", "signal with controls": "0 of 9"}
{"CDR-L1": "KSSQSVLYESRNKNAMA", "CDR-L2": "WASTRES", "CDR-L3": "QQYHRLPWS", "log10 Kd, replicates": "1.02 1.04 1.01", "mean, log10 nM": "1.02", "signal with controls": "5 of 9 (5.13)"}
{"CDR-L1": "KSSQMVLYENRNKNSVA", "CDR-L2": "WASTRES", "CDR-L3": "QQYHRLNLS", "log10 Kd, replicates": "n.d. n.d. n.d.", "mean, log10 nM": "n.d.", "signal with controls": "0 of 9"}
{"CDR-L1": "KSSQSVLYESRNQNSVA", "CDR-L2": "WASTRES", "CDR-L3": "QIYHRLPNS", "log10 Kd, replicates": "n.d. 5.16 n.d.", "mean, log10 nM": "5.16", "signal with controls": "1 of 9 (3.74)"}
{"CDR-L1": "KSSQSVLYESLNKNSVC", "CDR-L2": "WASTRNS", "CDR-L3": "QQYHRLPLS", "log10 Kd, replicates": "3.55 2.72 2.88", "mean, log10 nM": "3.05", "signal with controls": "1 of 9 (4.94)"}
{"CDR-L1": "KSSQSVLYESRNKNSVA", "CDR-L2": "WASTVEM", "CDR-L3": "QQYHRLQLS", "log10 Kd, replicates": "2.79 2.62 2.68", "mean, log10 nM": "2.70", "signal with controls": "1 of 9 (4.15)"}
{"CDR-L1": "KSSQSVLIESRNKNSVK", "CDR-L2": "WASTRES", "CDR-L3": "QQYHRLPLF", "log10 Kd, replicates": "4.07 4.43 n.d.", "mean, log10 nM": "4.25", "signal with controls": "4 of 9 (4.90)"}
{"CDR-L1": "KSSQSVLYESRNKNSVA", "CDR-L2": "WASTRES", "CDR-L3": "QQYHRLPLK", "log10 Kd, replicates": "1.97 1.77 2.12", "mean, log10 nM": "1.95", "signal with controls": "3 of 9 (3.90)"}
{"CDR-L1": "KSSQMVLYESRNKNSVA", "CDR-L2": "WLSTLES", "CDR-L3": "QQYHRLPLS", "log10 Kd, replicates": "n.d. n.d. 5.77", "mean, log10 nM": "5.77", "signal with controls": "3 of 9 (3.55)"}
{"CDR-L1": "KSSQSVLYESRNKNSVA", "CDR-L2": "WASTGES", "CDR-L3": "QQYHMLPLS", "log10 Kd, replicates": "n.d. 5.04 n.d.", "mean, log10 nM": "5.04", "signal with controls": "1 of 9 (3.96)"}
{"CDR-L1": "KSSCSVLYESRNKNSVA", "CDR-L2": "WASTRES", "CDR-L3": "QQYERLPLC", "log10 Kd, replicates": "3.61 n.d. n.d.", "mean, log10 nM": "3.61", "signal with controls": "2 of 9 (3.68)"}
{"CDR-L1": "KSSQSVLYESRDKNSVA", "CDR-L2": "WASTRES", "CDR-L3": "FQYNRLPLS", "log10 Kd, replicates": "n.d. n.d. n.d.", "mean, log10 nM": "n.d.", "signal with controls": "0 of 9"}
{"CDR-L1": "KMSQSVLYESRNMNSGA", "CDR-L2": "WASTRES", "CDR-L3": "QQYHRLPLS", "log10 Kd, replicates": "3.42 3.57 3.80", "mean, log10 nM": "3.60", "signal with controls": "3 of 9 (4.71)"}
{"CDR-L1": "KSSQSYLYESRNKFSVA", "CDR-L2": "WASTRSS", "CDR-L3": "QQYHRLPLS", "log10 Kd, replicates": "4.66 3.91 n.d.", "mean, log10 nM": "4.28", "signal with controls": "1 of 9 (3.60)"}
{"CDR-L1": "KSSQSVLYESRNKESVK", "CDR-L2": "WASTRES", "CDR-L3": "QMYHRLPLS", "log10 Kd, replicates": "3.82 n.d. n.d.", "mean, log10 nM": "3.82", "signal with controls": "4 of 9 (4.01)"}
{"CDR-L1": "KSSQFVDYESRNKLSVA", "CDR-L2": "WASTRES", "CDR-L3": "QQYHRLPLS", "log10 Kd, replicates": "1.79 1.29 1.19", "mean, log10 nM": "1.42", "signal with controls": "0 of 9"}
{"CDR-L1": "KSSQSVLYESRNKLSVA", "CDR-L2": "WASTLES", "CDR-L3": "QQYHRLPQS", "log10 Kd, replicates": "3.52 n.d. 3.08", "mean, log10 nM": "3.30", "signal with controls": "1 of 9 (3.42)"}
{"CDR-L1": "KSSQSVLYESRNKNSVA", "CDR-L2": "WASTRES", "CDR-L3": "FQYHTLPLP", "log10 Kd, replicates": "n.d. 5.34 n.d.", "mean, log10 nM": "5.34", "signal with controls": "4 of 9 (4.10)"}
{"CDR-L1": "KSSQSCLYESRNKNSVD", "CDR-L2": "WASTRES", "CDR-L3": "QQYHRLPLR", "log10 Kd, replicates": "n.d. 4.53 n.d.", "mean, log10 nM": "4.53", "signal with controls": "2 of 9 (4.44)"}

For reference, 4 entries of the list once more:

{"CDR-L1": "KSSQMVLYESRNKNSVA", "CDR-L2": "WLSTLES", "CDR-L3": "QQYHRLPLS", "log10 Kd, replicates": "n.d. n.d. 5.77", "mean, log10 nM": "5.77", "signal with controls": "3 of 9 (3.55)"}
{"CDR-L1": "KSSQSVLYESRNKESVK", "CDR-L2": "WASTRES", "CDR-L3": "QMYHRLPLS", "log10 Kd, replicates": "3.82 n.d. n.d.", "mean, log10 nM": "3.82", "signal with controls": "4 of 9 (4.01)"}
{"CDR-L1": "KSSQSVLYKSRNKNSVA", "CDR-L2": "WPSTRES", "CDR-L3": "QQYHRLPLS", "log10 Kd, replicates": "n.d. n.d. n.d.", "mean, log10 nM": "n.d.", "signal with controls": "1 of 9 (2.48)"}
{"CDR-L1": "KSSQSVLYESRNKLSVA", "CDR-L2": "WASTLES", "CDR-L3": "QQYHRLPQS", "log10 Kd, replicates": "3.52 n.d. 3.08", "mean, log10 nM": "3.30", "signal with controls": "1 of 9 (3.42)"}

Data: MIT Lincoln Laboratory AlphaSeq set, Engelhart et al. 2022, doi:10.1038/s41597-022-01779-4, as distributed in FLAb.